The values below are quoted from earlier work in patent publication US20240116925A1, “SALT OF NITROGEN-CONTAINING FUSED HETEROCYCLIC COMPOUND OR CRYSTAL FORM THEREOF, AND PREPARATION METHOD THEREFOR, PHARMACEUTICAL COMPOSITION THEREOF, AND USE THEREOF” (SHANGHAI PHARMACEUTICALS HOLDING CO., LTD., priority 2021, published 2024).

Read-outs that look alike come from different tables or passages of the source.

For data set [1] the following is noted: rat.
The conditions of data set [2]: mouse.

For `Cc1nc2c(F)cc(-c3nc(Nc4ccc5c(n4)CCN(CCN(C)C)C5)ncc3F)cc2n1C1CC1` [Compound I, N-(4-(1-cyclopropyl-4-fluoro-2-methyl-1H-benzimidazol-6-yl)-5-fluoropyrimidin-2-yl)-6-(2-(dimethylamino)ethyl)-5,6,7,8-tetrahydro-1,6-naphthyridin-2-amine], the “in vivo absorption properties” value in data set [1] and in data set [2] was “good in vivo absorption properties” throughout. Also, in data set [1] (in vivo), the bioavailability entry is “high bioavailability”.
